Reference: ChEMBL document CHEMBL1127578, “Phospholipase C inhibitors: a new class of cytotoxic agents” (J Med Chem, 1994)

How the values were obtained:
[1] = pKa value was determined; format: physicochemical
[2] = Inhibitory activity against phospholipase C isolated from human melanoma; IN-Inactive

Row | Structure (SMILES) | pKa [1] | IC50 [2]
1 | O=[N+]([O-])C1=Cc2ccccc2OC1Nc1cc([N+](=O)[O-])cc([N+](=O)[O-])c1 (centres undefined) | -4.53 | Not Active
2 | O=[N+]([O-])C1=Cc2ccccc2OC1Nc1ccc([N+](=O)[O-])cc1[N+](=O)[O-] (centres undefined) | 0 | Not Active
